Results published in patent EP2505659A1, “Methods for the identification of dioxygenase interacting molecules and for the purification of dioxygenase proteins” (CELLZOME AG, priority 2011, dated 2012).

Experiments:
PLOD1 [1] = target: T1, PLOD1 (Homo sapiens, UniProt Q02809); assay: biochemical; settings: read-out: Fold change versus DMSO control
T1 sequence (Q02809 19-727): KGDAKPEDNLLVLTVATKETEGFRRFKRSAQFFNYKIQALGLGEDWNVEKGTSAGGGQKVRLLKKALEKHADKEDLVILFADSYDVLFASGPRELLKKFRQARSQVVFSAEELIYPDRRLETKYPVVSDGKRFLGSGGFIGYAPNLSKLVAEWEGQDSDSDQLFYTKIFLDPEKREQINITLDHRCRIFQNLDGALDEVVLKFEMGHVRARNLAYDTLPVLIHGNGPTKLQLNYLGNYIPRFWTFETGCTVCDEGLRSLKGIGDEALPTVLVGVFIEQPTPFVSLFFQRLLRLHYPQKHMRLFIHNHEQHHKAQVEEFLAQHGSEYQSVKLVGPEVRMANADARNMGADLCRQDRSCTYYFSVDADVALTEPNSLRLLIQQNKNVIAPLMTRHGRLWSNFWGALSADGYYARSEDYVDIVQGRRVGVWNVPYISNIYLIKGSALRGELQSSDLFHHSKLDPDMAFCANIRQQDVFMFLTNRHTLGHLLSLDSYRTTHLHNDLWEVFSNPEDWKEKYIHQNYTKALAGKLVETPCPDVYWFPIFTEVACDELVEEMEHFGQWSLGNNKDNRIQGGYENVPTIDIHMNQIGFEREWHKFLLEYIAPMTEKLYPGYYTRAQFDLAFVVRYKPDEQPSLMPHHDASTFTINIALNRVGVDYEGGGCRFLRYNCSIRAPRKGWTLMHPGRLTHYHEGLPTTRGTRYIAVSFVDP
Protocol: Cells were harvested by centrifugation, washed once with 1 x PBS buffer (Invitrogen, #14190-094) and cell pellets were frozen in liquid nitrogen and subsequently stored at -80°C.
Cells were homogenized in a Potter S homogenizer in lysis buffer: 50 mM Tris-HCl, 0.8% NP40, 5% glycerol, 150 mM NaCl, 1.5 mM MgCl2, 25 mM NaF, 1 mM sodium vanadate, 1 mM DTT, pH 7.5. […] The supernatant was transferred again to a fresh 50 ml falcon tube, the protein concentration was determined by a Bradford assay (BioRad) and samples containing 50 mg of protein per aliquot were prepared.

ALKBH3 = target: T2, ALKBH3 (Homo sapiens, UniProt Q96Q83); assay: Bead competition binding assay, immobilized compound A, K-562, HL-60 and Jurkat nuclear lysates; parameters: capturing and identification of dioxygenases from nuclear protein extracts; endogenous in cells; settings: 100 µM free compound A, K-562 nuclear lysate, read-out: Fold change versus DMSO control
T2 sequence (Q96Q83 1-286): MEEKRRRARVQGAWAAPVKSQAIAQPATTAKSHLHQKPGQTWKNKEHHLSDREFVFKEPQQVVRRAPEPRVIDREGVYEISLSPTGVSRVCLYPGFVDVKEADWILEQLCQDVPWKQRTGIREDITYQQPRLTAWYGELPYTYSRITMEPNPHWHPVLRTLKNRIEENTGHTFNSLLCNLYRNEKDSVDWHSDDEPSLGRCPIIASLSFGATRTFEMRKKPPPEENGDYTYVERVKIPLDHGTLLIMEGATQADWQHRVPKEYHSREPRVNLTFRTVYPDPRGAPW
Source text: (§1) K562 cells were also purchased from DSMZ (Braunschweig, Germany).
(§2) Table 5: Peptide elution off the LC system
(§3) Seventeen different dioxygenases were identified.

LEPREL2 = target: T3, LEPREL2 (Homo sapiens, UniProt Q8IVL6); assay: as above; parameters: capturing and identification of dioxygenases from nuclear protein extracts; endogenous in cells; settings: 100 µM free compound A, HL-60 nuclear lysate, read-out: Fold change versus DMSO control
T3 sequence (Q8IVL6 21-736): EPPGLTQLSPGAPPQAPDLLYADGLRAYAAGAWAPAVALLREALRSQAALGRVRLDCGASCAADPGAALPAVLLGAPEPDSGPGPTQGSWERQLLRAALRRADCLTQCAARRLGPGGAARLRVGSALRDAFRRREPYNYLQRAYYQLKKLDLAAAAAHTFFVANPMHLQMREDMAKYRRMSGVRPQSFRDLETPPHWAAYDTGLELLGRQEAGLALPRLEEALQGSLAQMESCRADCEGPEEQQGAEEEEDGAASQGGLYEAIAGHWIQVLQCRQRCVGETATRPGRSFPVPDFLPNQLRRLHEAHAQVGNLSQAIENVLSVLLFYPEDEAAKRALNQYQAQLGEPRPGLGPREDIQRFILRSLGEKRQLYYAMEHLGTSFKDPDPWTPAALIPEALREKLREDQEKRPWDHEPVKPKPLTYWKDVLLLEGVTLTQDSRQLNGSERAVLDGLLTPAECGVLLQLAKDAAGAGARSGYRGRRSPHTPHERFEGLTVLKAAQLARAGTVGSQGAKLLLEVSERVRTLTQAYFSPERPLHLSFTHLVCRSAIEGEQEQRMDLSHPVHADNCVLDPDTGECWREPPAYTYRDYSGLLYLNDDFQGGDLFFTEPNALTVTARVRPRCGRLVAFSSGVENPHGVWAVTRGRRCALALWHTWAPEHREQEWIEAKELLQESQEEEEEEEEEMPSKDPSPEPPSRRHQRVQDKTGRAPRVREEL
Source text: as §1, §2, §3

PLOD1 [2] = target: T1, PLOD1; assay: as above; parameters: capturing and identification of dioxygenases from nuclear protein extracts; endogenous in cells; settings: 100 µM free compound A, HL-60 nuclear lysate, read-out: Fold change versus DMSO control
Source text: as §1, §2, §3

Compound: O=C(O)CNC(=O)C1C(=O)OC2(CCNCC2)OC1=O [compound A, 2-(2,4-dioxo-1,5-dioxa-9-azaspiro[5.5]undecane-3-carboxamido)acetic acid hydrochloride]
- remaining activity at 200 µM (PLOD1 [1]): 77%
- remaining binding at 100 µM (ALKBH3): 43%
- remaining binding at 100 µM (LEPREL2): 20%
- remaining binding at 100 µM (PLOD1 [2]): 78%

Counter-ions that a name gives are not always drawn.
